scFv variants of Ab-91 (heavy chain) against a SARS-CoV-2 spike peptide

Data: MIT Lincoln Laboratory AlphaSeq set, Engelhart et al. 2022, doi:10.1038/s41597-022-01779-4, as distributed in FLAb.

Binding partner: SARS-CoV-2 spike HR2 peptide, sequence PDVDLGDISGINAS.

Parent: Ab-91, a human scFv built as VL, the linker GGGGSGGGGSGGGGS, VH. Only the CDRs of the heavy chain vary.
VL: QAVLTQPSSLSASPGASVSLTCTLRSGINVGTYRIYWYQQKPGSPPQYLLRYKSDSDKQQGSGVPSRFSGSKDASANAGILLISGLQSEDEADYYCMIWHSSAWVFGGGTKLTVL
VH: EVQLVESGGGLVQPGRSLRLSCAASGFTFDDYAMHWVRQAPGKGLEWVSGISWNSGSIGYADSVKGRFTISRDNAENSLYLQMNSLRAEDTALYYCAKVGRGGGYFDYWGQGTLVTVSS

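Variants in AAYL51 differ from the parent at up to three CDR positions; double and triple changes were sampled at random. AlphaSeq pools MATa yeast showing the antibodies with MATalpha yeast showing the peptide. Binding brings cells together so that they mate, and sequencing counts the barcode pairs among the diploids. Each replicate has its own calibration line, from reference interactions of the BCL2 family. Each pool was mated in three replicate cultures.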

Positions count from residue 1 of the parent VH; S52E puts E in place of S.
Affinities are written as log10 Kd with Kd in nM; a lower number is a better binder.
"n.d." marks a missing value. The strain was present, yet no cells mated with the target were sequenced in that replicate, which points to weak or no binding.
Three control strains display no target. For library AAYL51, 21% of the pairings with them gave a signal, with a median of 4.54 and one signal in twenty below 3.26, so weak values seen in few replicates may be background. For each scFv, signals with the empty controls are counted beside the result, with their mean in brackets.

| # | changes | log10 Kd, replicates | control signals |
|---|---|---|---|
| 1 | S52E+K65Q+G104Q | 4.60 n.d. n.d. | 4 of 9 (4.29) |
| 2 | G50Y+Y60L+D107Y | n.d. 4.49 n.d. | 0 of 9 |
| 3 | F27R+D30N+W53T | 4.53 5.36 n.d. | 2 of 9 (4.61) |
| 4 | I51V+A61G+V99D | 3.45 3.46 2.93 | 3 of 9 (4.62) |
| 5 | D30K+G100T+Y108W | 5.73 5.86 n.d. | 4 of 9 (5.05) |
| 6 | W53Y+K65N+V99Q | 4.14 4.43 3.78 | 2 of 9 (4.99) |
| 7 | Y60K+A61C+D62H | 4.29 n.d. n.d. | 0 of 9 |
| 8 | N54S+G100E+F106G | 1.53 1.50 0.94 | 2 of 9 (5.21) |
| 9 | H35N+S57T+V64S | 3.78 3.95 n.d. | 6 of 9 (4.19) |
| 10 | T28N+A61C+D107E | 2.71 2.46 2.30 | 1 of 9 (3.50) |
| 11 | F29S+V64K+G104M | n.d. 3.80 n.d. | 1 of 9 (4.61) |
| 12 | W53P+G56H+D62C | n.d. n.d. n.d. | 0 of 9 |
| 13 | G26D+D30Y+Y108K | 4.60 5.03 6.18 | 7 of 9 (5.08) |
| 14 | H35P+I58N+G104V | n.d. n.d. n.d. | 0 of 9 |
| 15 | G50R+S57V+G104I | n.d. n.d. n.d. | 2 of 9 (4.58) |
| 16 | N54I+G59V+G104D | n.d. n.d. n.d. | 0 of 9 |
| 17 | F29W+Y32K+V64D | 5.57 4.13 3.51 | 3 of 9 (3.55) |
| 18 | G26D+A33V+Y108Q | n.d. n.d. n.d. | 0 of 9 |
| 19 | V64A+V99P+G100Q | n.d. n.d. n.d. | 2 of 9 (4.25) |
| 20 | T28C+A61E+G104V | 4.77 n.d. n.d. | 4 of 9 (5.15) |
| 21 | V64L+K65P+F106I | n.d. n.d. n.d. | 0 of 9 |
| 22 | D31S+A33I+Y105S | n.d. n.d. n.d. | 2 of 9 (3.60) |
| 23 | A33L+I51Q+S57Y | n.d. n.d. n.d. | 0 of 9 |
| 24 | H35F+G100V+G102R | 4.58 n.d. n.d. | 0 of 9 |
| 25 | F29D+A33L+Y105A | n.d. n.d. n.d. | 2 of 9 (3.89) |
| 26 | W53N+I58K+G59A | 3.39 n.d. n.d. | 0 of 9 |
| 27 | I58R+D62Y+V64D | n.d. 3.89 n.d. | 1 of 9 (4.77) |
| 28 | S57G | 2.68 2.42 2.67 | 1 of 9 (3.78) |
| 29 | W53G+R101Y+G103Y | n.d. n.d. n.d. | 0 of 9 |
| 30 | M34Q+I58D+Y105T | n.d. n.d. n.d. | 4 of 9 (4.34) |
| 31 | F29A+S57K+G100W | 4.27 4.65 n.d. | 7 of 9 (4.56) |
| 32 | S63I+K65G+Y105M | 4.08 n.d. 5.31 | 6 of 9 (4.50) |
| 33 | D31F+G59E+A61W | n.d. n.d. n.d. | 2 of 9 (3.97) |
| 34 | H35W+S52Q+A61S | n.d. n.d. n.d. | 4 of 9 (4.64) |
| 35 | T28V+Y60W+K65I | n.d. 5.52 3.91 | 2 of 9 (5.03) |
| 36 | F27E+Y32P+G104L | n.d. n.d. n.d. | 1 of 9 (3.64) |
| 37 | F29H+G50N+S52T | 4.72 4.46 5.09 | 8 of 9 (5.11) |

The opening 6 entries, copied out:

changes,"log10 Kd, replicates",control signals
S52E+K65Q+G104Q,4.60 n.d. n.d.,4 of 9 (4.29)
G50Y+Y60L+D107Y,n.d. 4.49 n.d.,0 of 9
F27R+D30N+W53T,4.53 5.36 n.d.,2 of 9 (4.61)
I51V+A61G+V99D,3.45 3.46 2.93,3 of 9 (4.62)
D30K+G100T+Y108W,5.73 5.86 n.d.,4 of 9 (5.05)
W53Y+K65N+V99Q,4.14 4.43 3.78,2 of 9 (4.99)